The results in this text go back to patent US20130052259A1, “LIPOSOMES COMPRISING AMPHIPATHIC DRUGS AND METHOD FOR THEIR PREPARATION” (priority 2010, published 2013).

Data set [1] is described as follows: Physicochemical properties of VCR and TPT. The text has this:
The need to develop one liposome that includes two drugs at a specific predefined mole ratio required optimization of the loading conditions and “crosstalk” with the drugs. For this, physiochemical characterization of the two drugs is required.

A short description of data set [2]: Remote loading of drugs into nSSL (loading efficiency). The class given is physicochemical. To be noted: saline pH 6, sulfate counter ion. The procedure:
The remote loading was achieved by incubation of the liposomes with the drugs for 30 min at 55° C., then cooling to 4° C., followed by dialyzing against 5% dextrose to remove ammonia and residual unloaded drug. Alternatively, in some cases, unloaded drug and ammonia (released during the loading process) were removed using cation exchange resin Dowex 50WX-4 (G. Haran, R. Cohen, L. K. Bar, Y. Barenholz, Transmembrane ammonium sulfate gradients in liposomes produce efficient and stable entrapment of amphipathic weak bases. Biochim. Biophys. Acta 1151(2) (1993) 201-215; G. Storm, L. van Bloois, M. Brouwer, D. J. Crommelin, The interaction of cytostatic drugs with adsorbents in aqueous media. The potential implications for liposome preparation. Biochim. Biophys. Acta 818(3) (1985) 343-351). At times, the co-encapsulated nSSL with VCR and TPT is referred to by the abbreviation “LipoViTo”.
Quantification was performed using HPLC with UV and fluorescence detectors for VCR and TPT, respectively, as described by Zucker et al. (D. Zucker, et al. 2009 ibid.).
External medium: saline at pH 5.7;
Gradient forming salt: ammonium sulfate,
Loading duration: 30 min at 55° C.

The nature of data set [3]: Maximum tolerated dose (MTD). The class given is in vivo, mice. As to conditions: ≦15% body weight loss nadir lasting ≦2 days. The procedure:
The MTD is determined in clinical trials by testing increasing doses on different groups of people until the highest dose with acceptable side effects is found. For each drug, the MTD as determined in clinical trials is then available via publicly available sources such as SciFinder which is the On Line search engine of The American Chemical Society for various information including MTD (in animals as well as in humans). When referring to MTD in cancer treatment, the MTD values may be defined as survival in the absence of significant tumor burden with ≦15% body weight loss nadir lasting ≦2 days. In this context, the “MTD ratio” between two drugs is the ratio between the MTD determined for each drug. For instance, when referring to topotecan (TPT, topotecan hydrochloride, MW 421.45) and vincristine (VCR, vincristine sulfate MW 923.04), being two amphipathic weak bases, the MTD is respectively, 5 mg/kg and 1.5 mg/kg, and the TPT/VCR mole ratio of 7.3.
Maximum tolerated dose (MTD) values were defined as survival in the absence of significant tumor burden with ≦15% body weight loss nadir lasting ≦2 days. Tumor volume, survival, and body weight were monitored 2-3 times per week.

Turning to Topotecan [Topotecan (TPT)], the logP in data set [1] is given as 1.39. The results for the logD in data set [1] (pH 6) and in data set [1] (pH 8) were −0.27 and 1.00, respectively. The “optimal drug-to-PL mole ratio for highest encapsulation efficiency” value in data set [2] is reported as approximately 0.220. For the same substance, in data set [3], the MTD amounted to 5 mg/kg.

The term logP denotes the decadic logarithm of the partition coefficient of the neutral form, usually between octanol and water. A higher logP goes with higher lipophilicity. As a reminder, the logD is the decadic logarithm of the distribution of all forms, ionised or not, between an organic phase and buffer at a given pH. Read a low logD as a more hydrophilic compound. By MTD is commonly meant the highest dose tested that stayed within the study's limit of toxicity. A low value points to a narrow tolerated range.
